The numbers were not newly measured in patent publication US9415039B2, “Disubstituted 3,4-diamino-3-cyclobutene-1,2-dione compounds for use in the treatment of chemokine-mediated diseases” (GALDERMA RESEARCH & DEVELOPMENT, priority 2011, dated 2016), which cites them from elsewhere.

Chains of the proteins cited; added tags and fusions are not shown.
UniProt P25025, whole entry: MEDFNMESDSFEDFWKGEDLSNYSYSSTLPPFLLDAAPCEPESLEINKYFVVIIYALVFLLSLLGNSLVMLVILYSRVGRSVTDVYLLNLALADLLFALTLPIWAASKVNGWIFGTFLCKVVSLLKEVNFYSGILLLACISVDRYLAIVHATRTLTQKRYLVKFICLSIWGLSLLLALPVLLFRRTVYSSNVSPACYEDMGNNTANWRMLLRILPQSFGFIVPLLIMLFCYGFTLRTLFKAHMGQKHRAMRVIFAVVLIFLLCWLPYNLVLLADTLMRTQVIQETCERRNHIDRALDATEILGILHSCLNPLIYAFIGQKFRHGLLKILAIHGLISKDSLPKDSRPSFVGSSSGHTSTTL

This series concerns the target T1, CXCR2 (Homo sapiens, UniProt P25025).
T1 construct: β-galactosidase enzyme-complementation fragment (PathHunter system); host or cells: HEK293
Particulars: cited from earlier work.

Regarding `CC[C@@H](Nc1c(Nc2cccc(C(=O)N(C)C)c2O)c(=O)c1=O)c1ccc(C)o1` [SCH-527123], for the setting “as described in JPET 322:477-485, 2007”, the “type of dissociation (in words)” value was “pseudo-irreversible dissociation”. For the same molecule, the dissociation time entry (receptors of CXCR1 and CXCR2 type, from JPET 322:477-485, 2007) is “about 22 h”.
